Values of other authors as cited in publication PMC10572662, “Exploring the Influence of Spacers in EDTA–β-Cyclodextrin Dendrimers: Physicochemical Properties and In Vitro Biological Behavior” (International Journal of Molecular Sciences, 2023).
Converted amounts (≈) assume the structure as drawn.

Set-up: method as in PMID 17601630
Conditions: native βCD and commercial βCD derivatives

water solubility: 18.5 mg/mL (≈ 16.3 mM)
SMILES: OC[C@H]1O[C@@H]2O[C@H]3[C@H](O)[C@@H](O)[C@@H](O[C@H]4[C@H](O)[C@@H](O)[C@@H](O[C@H]5[C@H](O)[C@@H](O)[C@@H](O[C@H]6[C@H](O)[C@@H](O)[C@@H](O[C@H]7[C@H](O)[C@@H](O)[C@@H](O[C@H]8[C@H](O)[C@@H](O)[C@@H](O[C@H]1[C@H](O)[C@H]2O)O[C@@H]8CO)O[C@@H]7CO)O[C@@H]6CO)O[C@@H]5CO)O[C@@H]4CO)O[C@@H]3CO [native βCD, β-cyclodextrin]
